Results as given in paper doi:10.1101/2024.08.08.607204, “Mechanism of ASF1 Inhibition by CDAN1” (bioRxiv, 2024).

T1: Strep-tagged CDAN1 (ST-CDAN1), wildtype (human, UniProt Q8IWY9 1-1227)
T1 construct: Codanin-1 (CDAN1) cDNA from Horizon Discovery/Dharmacon; a point mutation of the clone (S421F) was corrected; in pCDNA3.1; Dimer by SEC-MALS and cryo-EM; Same plasmid used in Expi293 (purifications) and in Flp-In 293 T-REx (pulldowns); kept as one molecule; also called WT CDAN1; Strep-CDAN1; source: Expi293, transiently transfected, in lysate and purified in complexes (anti-FLAG, Strep-Tactin); …
T1 sequence: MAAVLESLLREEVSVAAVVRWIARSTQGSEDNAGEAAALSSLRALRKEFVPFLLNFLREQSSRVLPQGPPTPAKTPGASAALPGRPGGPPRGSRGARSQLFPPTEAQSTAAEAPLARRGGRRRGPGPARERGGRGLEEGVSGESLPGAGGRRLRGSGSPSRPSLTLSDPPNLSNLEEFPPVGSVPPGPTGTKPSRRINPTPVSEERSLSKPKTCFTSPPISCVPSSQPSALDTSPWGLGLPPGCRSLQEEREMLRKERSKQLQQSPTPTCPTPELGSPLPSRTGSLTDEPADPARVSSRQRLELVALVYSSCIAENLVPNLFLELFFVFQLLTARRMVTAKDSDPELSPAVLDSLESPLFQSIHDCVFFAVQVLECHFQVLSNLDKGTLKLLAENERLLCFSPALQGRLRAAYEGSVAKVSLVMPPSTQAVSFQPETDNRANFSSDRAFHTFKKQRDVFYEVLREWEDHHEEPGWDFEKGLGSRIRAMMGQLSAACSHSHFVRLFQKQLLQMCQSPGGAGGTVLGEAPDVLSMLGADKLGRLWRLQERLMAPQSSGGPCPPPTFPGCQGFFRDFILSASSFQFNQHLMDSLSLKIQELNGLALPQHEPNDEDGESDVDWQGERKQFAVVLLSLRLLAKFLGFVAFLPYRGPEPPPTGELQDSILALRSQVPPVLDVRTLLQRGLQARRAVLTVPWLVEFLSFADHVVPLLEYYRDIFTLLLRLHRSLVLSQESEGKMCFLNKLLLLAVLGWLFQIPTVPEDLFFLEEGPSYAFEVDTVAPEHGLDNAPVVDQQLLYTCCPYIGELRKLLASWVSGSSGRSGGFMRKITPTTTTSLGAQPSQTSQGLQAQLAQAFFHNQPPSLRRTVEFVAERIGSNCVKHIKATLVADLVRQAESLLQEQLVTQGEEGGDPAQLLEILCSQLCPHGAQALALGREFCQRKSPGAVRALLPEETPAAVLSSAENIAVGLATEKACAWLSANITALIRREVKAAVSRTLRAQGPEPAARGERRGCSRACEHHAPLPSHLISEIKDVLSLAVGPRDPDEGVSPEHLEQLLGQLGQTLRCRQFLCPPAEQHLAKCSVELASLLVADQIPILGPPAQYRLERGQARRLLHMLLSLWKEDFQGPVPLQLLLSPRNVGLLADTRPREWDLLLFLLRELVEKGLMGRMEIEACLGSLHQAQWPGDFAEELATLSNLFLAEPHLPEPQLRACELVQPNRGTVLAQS

B1: FLAG-tagged ASF1A (F-ASF1A) (natural protein)
chain: not shown
notes: ASF1A cDNA synthesized by IDT, in pCDNA3.1; Same plasmid used in Expi293 and in Flp-In 293 T-REx; kept as one molecule; also called FLAG-ASF1A; source: Expi293, transiently transfected, in lysate and purified in the C:A complex (anti-FLAG, Strep-Tactin); Flp-In 293 T-REx, co-transfected, in lysate; not shown: 3xFLAG, N-terminal, kept
B2: HA-tagged ASF1A (natural protein)
chain: not shown
notes: ASF1A cDNA synthesized by IDT, in pCDNA3.1; also called HA-ASF1A; ASF1A-1; source: Expi293, transiently transfected, in lysate and purified in the C:C:A complex (anti-FLAG, Strep-Tactin); not shown: 3xHA, N-terminal, kept

Biological target: T1, Strep-tagged CDAN1 (ST-CDAN1), wildtype
Assay: SEC-MALS; 200 μg of each purified complex at 5 μM on an SRT SEC-300 column with DAWN HELEOS II detector; dn/dc 0.185
Details: both partners purified

| Binder | stoichiometry N |
| --- | --- |
| B1 | 3 copies of ASF1A per two copies of CDAN1 |
| B2 | 3 copies of ASF1A per two copies of CDAN1 |
